pIC50: −log10 of the molar value.

One test relates to A-375 cells. The test is described as follows: alamarBlue proliferation assay with A-375 cells. The note with it: read-out: Activity on A-375: IC50, DMEM medium, 10% FBS.
Another test has as its system NCI-H460 cells. Description: alamarBlue proliferation assay with NCI-H460 cells. The note with it: read-out: Activity on NCI-H460: IC50, RPMI 1640 medium, 10% FBS.
A further test concerns HEP-G2 cells. Description: alamarBlue proliferation assay with HEP-G2 cells. The following applies: read-out: Activity on HEP-G2: IC50, RPMI 1640 medium, 10% FBS.
For the next test, the system named is A-431 cells. Description: alamarBlue proliferation assay with A-431 cells. The note with it: read-out: Activity on A-431: IC50, DMEM medium, 10% FBS.
Another test concerns CF21.T cells. The test is described as follows: alamarBlue proliferation assay with CF21.T cells. The following applies: read-out: Activity on CF21.T: IC50; CF21.T canine cells, DMEM medium, 10% FBS.
A further test deals with C2C12 cells. The test is described as follows: alamarBlue proliferation assay with C2C12 cells. The following applies: read-out: Activity on C2C12: IC50; C2C12 murine myoblast cells, RPMI 1640 medium, 10% FBS.

With `COc1ccc(CN2CCN(C(=O)c3ccc(Oc4ccc(C5CCC(OC)CC5)cc4CO)cc3)CC2)cc1` (centres unmarked), the pIC50 in the test on A-375 cells, in the test with NCI-H460 cells, with HEP-G2 cells and in the test with A-431 cells was ≥ 6.70 each time.
As for `CN(C)C(=O)c1ccc(CN2CCN(C(=O)c3ccc(Oc4ccc(C5CCC6(CC5)OCCO6)cc4CO)cc3)CC2)cc1`, in the test with NCI-H460 cells, the pIC50 is ≥ 6.00.
For the compound `COCC1(COC)CCC(c2ccc(Oc3ccc(C(=O)N4CCN(Cc5ccc(OC)cc5)CC4)cc3)c(CO)c2)CC1`, the negative logarithm of the IC50 (pIC50) in the test on CF21.T cells and with HEP-G2 cells was ≥ 6.70 throughout.
For `COC1CCC(c2ccc(Oc3ccc(C(=O)N4CCN(Cc5cnc6ccccc6c5)CC4)nc3)c(CO)c2)CC1` (centres unmarked), the pIC50 with HEP-G2 cells is ≥ 6.70.
Consider `COC1CCC(c2ccc(Oc3ccc(C(=O)N4CCN(Cc5ccc(Cl)cn5)CC4)cc3)c(CO)c2)CC1` (centres unmarked), for which the pIC50 in the test with CF21.T cells and with HEP-G2 cells was ≥ 6.70 in each case.
Take `CN(C)S(=O)(=O)c1ccc(CN2CCN(C(=O)c3ccc(Oc4ccc(C5CCC6(CC5)OCCO6)cc4CO)cc3)CC2)cc1`: the pIC50 in the test on C2C12 cells and in the test on NCI-H460 cells was ≥ 6.70 throughout.
For `O=C(c1ccc(Oc2ccc(C3CCC4(CC3)OCCO4)cc2CO)cc1)N1CCN(Cc2ccc3ccccc3c2)CC1`, the negative logarithm of the IC50 (pIC50) in the test with NCI-H460 cells, in the test on HEP-G2 cells and in the test with A-431 cells was ≥ 6.70 each time.
`O=C(c1ccc(Oc2ccc(C3CCCCC3)cc2CO)cn1)N1CCN(Cc2ccc(OC(F)(F)F)cc2)CC1`: the pIC50 in the test with HEP-G2 cells was ≥ 6.70.
On to `O=C(c1ccc(Oc2ccc(C3CCC4(CC3)OCCO4)cc2CO)cc1)N1CCN(Cc2ccccc2Cl)CC1`, for which the negative-log IC50 (pIC50) in the test with C2C12 cells was ≥ 4.70.
`COc1ccc(CN2CCN(C(=O)c3ccc(Oc4ccc(C5CCCCC5)cc4CO)cn3)CC2)cc1`: the negative logarithm of the IC50 (pIC50) in the test on NCI-H460 cells and in the test with HEP-G2 cells was ≥ 6.70 in each case.
Regarding `COC1CCC(c2ccc(Oc3ccc(C(=O)N4CCN(Cc5ccccc5)CC4)nc3)c(CO)c2)CC1` (centres unmarked), the pIC50 in the test with NCI-H460 cells and in the test on HEP-G2 cells was ≥ 6.70 in each case.
For `O=C(c1ccc(Oc2ccc(C3CCC4(CC3)OCCO4)cc2CO)cc1)N1CCN(Cc2ccoc2)CC1`, the pIC50 in the test with NCI-H460 cells was ≥ 5.30.
`COc1ccc(CN2CCN(C(=O)c3ccc(Oc4ccc(C5CCC(OC)CC5)cc4CO)cn3)CC2)cc1` (centres unmarked): the pIC50 with A-375 cells, with NCI-H460 cells, with HEP-G2 cells and with A-431 cells was ≥ 6.70 each time.
Turning to `O=C(c1ccc(Oc2ccc(C3CCCCC3)cc2CO)cc1)N1CCN(Cc2ccc(OC(F)(F)F)cc2)CC1`, the pIC50 with A-375 cells and in the test with A-431 cells was ≥ 6.70 throughout.
`O=C(c1ccc(Oc2ccc(C3CCC4(CC3)OCCO4)cc2CO)cc1)N1CCN(Cc2cccs2)CC1`: the pIC50 in the test on NCI-H460 cells is ≥ 4.70.
On to `O=C(c1ccc(Oc2ccc(C3CCCCC3)cc2CO)cc1)N1CCN(Cc2ccc(Cl)cc2)CC1`, for which the pIC50 with HEP-G2 cells is ≥ 6.70.
In the case of `O=C(c1ccc(Oc2ccc(C3CCC4(CCCO4)CC3)cc2CO)cc1)N1CCN(Cc2ccccc2)CC1` (centres unmarked), in the test with NCI-H460 cells, the pIC50 is ≥ 5.30.
Turning to `O=C(c1ccc(Oc2ccc(C3CCC4(CC3)OCCCO4)cc2CO)cc1)N1CCN(Cc2ccccc2)CC1`, the pIC50 with NCI-H460 cells was ≥ 6.00.
For `COc1ccc(CN2CCN(C(=O)c3ccc(Oc4ccc(C5CCC6(CC5)SCCCS6)cc4CO)cn3)CC2)cc1`, the pIC50 in the test on A-375 cells is ≥ 6.70.
On to `COc1ccc(CN2CCN(C(=O)c3ccc(Oc4ccc(C5CCCCC5)cc4CO)cc3)CC2)cc1`, for which the pIC50 with NCI-H460 cells and with HEP-G2 cells was ≥ 6.70 throughout.
In the case of `O=C(c1ccc(Oc2ccc(C3CCC4(CC3)OCCO4)cc2CO)cn1)N1CCN(Cc2ccccc2)CC1`, the pIC50 in the test on C2C12 cells was ≥ 5.30.
Regarding `COC(=O)c1ccc(CN2CCN(C(=O)c3ccc(Oc4ccc(C5CCC6(CC5)OCCO6)cc4CO)cc3)CC2)cc1`, the pIC50 in the test with NCI-H460 cells is ≥ 6.70.
Consider `COC1CCC(c2ccc(Oc3ccc(C(=O)N4CCN(Cc5ccc(Cl)cc5)CC4)cc3)c(CO)c2)CC1` (centres unmarked), for which the pIC50 in the test on A-375 cells, with NCI-H460 cells, in the test on HEP-G2 cells and in the test on A-431 cells was ≥ 6.70 throughout.
Consider `COc1cc(C2CCC(OC)CC2)ccc1Oc1ccc(C(=O)N2CCN(Cc3ccc(Cl)cc3)CC2)cc1` (centres unmarked), for which the values for the pIC50 in the test on A-375 cells and in the test with A-431 cells were ≥ 6.70 and ≥ 6.00, respectively.
On to `COc1ccc(CN2CCN(C(=O)c3ccc(Oc4ccc(C5CCC(OC)CC5)cc4O)cn3)CC2)cc1` (centres unmarked), for which the pIC50 with HEP-G2 cells is ≥ 6.70.

Values taken from patent publication US20260384421A1, “NOVEL COMPOUNDS THAT CAN BE USED AS THERAPEUTIC AGENTS” (published 2026).
